## Binding of CDR-mutated scFvs to a peptide of the spike HR2 region

The target is the same throughout: PDVDLGDISGINAS, from the HR2 region of SARS-CoV-2 spike.

Each scFv is VH, a 15-residue (Gly4Ser)3 linker, VL, as in the parent Ab-14, and differs from it in the CDRs of the light chain only.
VH: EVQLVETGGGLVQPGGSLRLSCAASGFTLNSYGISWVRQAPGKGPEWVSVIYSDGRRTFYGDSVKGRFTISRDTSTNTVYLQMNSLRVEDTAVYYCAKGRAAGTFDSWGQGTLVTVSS
VL: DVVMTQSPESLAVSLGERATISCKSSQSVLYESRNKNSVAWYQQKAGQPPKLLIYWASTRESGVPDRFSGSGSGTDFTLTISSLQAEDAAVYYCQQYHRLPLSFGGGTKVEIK

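Phage display of a naive human antibody library on the peptide gave the parent. These sequences belong to a second round, designed from the earlier measurements on random variants of the parent. Their group label is 14L_GP_Gibbs (GP: Gaussian process model; Gibbs: Gibbs sampling; a sequence that several methods proposed may carry one label only). In AlphaSeq, yeast of one mating type display the scFv and yeast of the other type display the target. Pairs that bind mate more often; barcode pairs of the diploids are counted by sequencing. A regression on co-assayed BCL2-family reference pairs converts the normalised counts of each replicate to an apparent Kd. There are six technical replicates.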

Variants are written as CDR1, CDR2 and CDR3 of the light chain (limits as in the source). Parent: KSSQSVLYESRNKNSVA, WASTRES, QQYHRLPLS. The read-out is the apparent dissociation constant on a log10 scale (nM): the lower, the stronger. A mean of the replicates is given; it leaves out those without a signal. A pair that was not seen in that replicate is written "n.d."; this usually means weak binding, but a binder can also be missed. The authors averaged sequences with at least three values out of six and counted those with two or fewer as poor binders. As a blank, each scFv also met three strains without target: over all light chain designs, 4% of these pairings were detected, typically at 2.64 and seldom below 1.59. Also given: how often the same scFv was detected with the empty control strains, with their mean in brackets. The parent sequence was in this pool as ten entries: three were never detected, three once, and four in most replicates, with averages from 0.34 to 2.37. The range of this assay differs from that of the first round, and the authors advise against merging the two.

CDR-L1,CDR-L2,CDR-L3,log10 Kd (nM) by replicate,"log10 Kd (nM), mean",empty controls
KLQNSFLYGSRQSNNVA,EASQRES,QQYHRLPLS,0.07 / 0.00 / 0.23 / 0.02 / 0.09 / 0.25,0.11,1 of 18 (2.04)
KLQQSVQYESRNSNAVA,QASQRES,QQYHRLPLS,0.32 / 0.19 / 0.28 / 0.17 / 0.16 / 0.38,0.25,1 of 18 (2.69)
KLSQQNKYESRMKNSVA,NASQRES,QQYHRLPLS,0.50 / 0.20 / 0.08 / 0.08 / 0.02 / 0.50,0.23,2 of 18 (3.03)
KSFQSELEEQRNKNSVA,SASTRLS,QQYHRLPLS,-0.32 / -0.50 / -0.26 / -0.29 / -0.49 / -0.30,-0.36,0 of 18
KFPQSNGYEQRNKNSVA,EASQREQ,QQYHRLPLS,0.67 / 0.23 / 0.29 / 0.38 / 0.01 / 0.30,0.32,0 of 18
KLHQSWLYESRQINSVA,NASQRCS,QQYHRLPLS,0.39 / 0.29 / 0.16 / 0.08 / 0.18 / 0.43,0.25,1 of 18 (3.36)
KLPQSMLYESRNKNSVA,QASTREE,QQYHRLPLT,0.34 / -0.67 / -0.46 / -0.65 / -0.32 / 0.14,-0.27,0 of 18
KLSQEWLYENRNKNNVA,HASKRSS,QQYHRLPLS,0.41 / 0.28 / 0.36 / 0.04 / 0.17 / 0.35,0.27,0 of 18
KLSFGELMESRNKNSVA,EASCREE,QQYHRLPLS,-0.12 / -0.06 / 0.24 / 0.03 / -0.20 / -0.23,-0.06,0 of 18
KLSQSVLYESQNKNQVA,GSSTRMS,QQYHRLPLS,0.00 / 0.06 / -0.10 / -0.28 / -0.14 / 0.15,-0.05,3 of 18 (3.51)
KLSQSVNGQSRNKNSVA,HASTREQ,QDYHRLPLS,1.31 / 1.15 / 1.22 / 1.38 / 0.97 / 1.28,1.22,1 of 18 (2.65)
KLMQSDLLESRNVNNVA,QASQREL,QDYHRLPLS,0.53 / 0.39 / 0.27 / 0.04 / 0.13 / 0.06,0.24,0 of 18
KLSMEHDYESRNKNSVA,QASQREW,QQYHRLPLS,0.07 / -0.15 / -0.07 / -0.02 / -0.10 / -0.23,-0.08,0 of 18
KLSLSVLLESRDVNAVA,EASTRES,QQYHRLPLS,0.10 / -0.04 / -0.42 / -0.24 / -0.44 / 0.12,-0.15,1 of 18 (3.11)
KLQQAELGESRNKNSVA,SADTRES,QQYHRLPLS,n.d. / n.d. / n.d. / n.d. / n.d. / n.d.,n.d.,0 of 18
KVMQSEWYESRWKNSVA,NASQRES,QQYHRLPLS,0.61 / 0.43 / 0.07 / 0.43 / 0.38 / 0.48,0.40,1 of 18 (2.83)
KLSQSELYESRCDNSVA,NASTRCE,QQYHRLPLS,0.56 / 0.74 / 0.56 / 0.58 / 0.49 / 0.62,0.59,4 of 18 (3.07)
KQQQSDEGEQRNKNSVA,EASTRCM,QQYHRLPLS,0.16 / 0.45 / 0.04 / 0.24 / 0.20 / 0.35,0.24,1 of 18 (1.58)
KLMGSVLYESRMKNSVA,GASQREK,QQYHRLPLS,0.18 / 0.11 / 0.10 / -0.23 / -0.18 / 0.02,0.00,3 of 18 (2.37)
KQSQSVLYESRNKNSIA,NANQREQ,QQYHRLPLS,-0.26 / -0.50 / -0.67 / -0.69 / -0.14 / -0.36,-0.44,1 of 18 (3.71)
KLSGSKGYESRNPNSVA,NASTREL,QQYHRLPLS,-0.36 / -0.51 / -0.68 / -0.89 / -0.67 / -0.60,-0.62,1 of 18 (2.36)
KLSQSWEYGSRNANSVA,NASQREE,QQYHRLPLS,-0.10 / -0.25 / -0.58 / -0.51 / -0.53 / -0.15,-0.35,0 of 18
KVSQSWQYGSRNKNSVA,NASQRES,QQYHRLPLS,-0.23 / -0.51 / -0.30 / -0.46 / -0.41 / -0.10,-0.33,0 of 18
KFMQSWLGESLNKNSVA,NASQREH,QQYHRLPLS,0.18 / 0.60 / 0.12 / 0.20 / 0.20 / 0.34,0.27,0 of 18
HLEQSSLYEQRNKNSVA,NASLRCS,QQYHRLPLS,-0.20 / -0.22 / -0.30 / -0.33 / -0.29 / -0.16,-0.25,0 of 18
KVSISEPYEERNKNSVA,NASQRMS,QQYHRLPLS,-0.14 / -0.21 / -0.34 / -0.43 / -0.23 / -0.20,-0.26,2 of 18 (2.57)
KLEFSDLNESRNKNSVA,EASTRES,QQYHRLPLS,0.16 / 0.09 / 0.27 / -0.01 / -0.06 / 0.22,0.11,3 of 18 (2.57)
KLDQSGLYGSRNKNSVA,EASEREV,QQYHRLPLY,0.22 / 0.02 / -0.12 / -0.21 / -0.02 / 0.19,0.01,1 of 18 (2.52)
KSSQSELYESRHKNSVA,NASYRED,QQYHRLPLS,0.25 / 0.58 / 0.24 / 0.11 / 0.04 / 0.42,0.28,0 of 18
KVPQSHLYESRNMNSVA,NASERES,QQYHRLPLS,0.43 / 0.52 / 0.40 / 0.47 / 0.38 / 0.45,0.44,1 of 18 (2.49)
KLSQSWMQQWRNKNSVA,NASTRLS,QQYHRLPLS,-0.25 / 0.10 / -0.36 / 0.51 / -0.41 / 0.44,0.00,0 of 18
KSSGQVCYGDRMKNSVA,NASTREQ,QQYHRLPLS,0.56 / 0.68 / 0.59 / 0.35 / 0.75 / 0.74,0.61,1 of 18 (2.42)
KQQFSGGGGSRNKNSVA,KASTRES,QQYHRLPLS,1.22 / 2.08 / 1.83 / 1.14 / 2.04 / 2.26,1.76,1 of 18 (2.67)
KLQQSKLYLSRWKNSVA,HASVRES,QQYHRLPLS,3.03 / 2.20 / 2.44 / 1.49 / 1.70 / 1.70,2.09,1 of 18 (2.78)
KLSQSVWYESRLKNSVA,EASTRMY,QQYHRLPLA,0.11 / 0.17 / -0.07 / -0.05 / 0.20 / 0.11,0.08,1 of 18 (4.00)
KLSSSWLMEERNKNSVA,QASQRER,QQYHRLPLS,-0.23 / -0.09 / -0.46 / -0.26 / -0.54 / -0.30,-0.32,1 of 18 (2.64)
KASPSEEYESRNKNSVA,NASYRES,QQYHRLPLS,0.04 / 0.04 / 0.39 / 0.41 / 0.58 / 0.76,0.37,1 of 18 (3.81)
KLSQSMLYESRNDNSVA,QASTRES,QDYHRLPLT,-0.17 / -0.03 / -0.10 / -0.21 / -0.11 / -0.22,-0.14,1 of 18 (2.64)
KLMWSMQYWSRNKNSVA,GASTRES,QQYHRLPLS,0.48 / 0.30 / 0.67 / 0.55 / 0.53 / 0.63,0.53,0 of 18
KMSQEVDLESRNDNSVA,NASCRED,QQYHRLPLS,0.85 / 0.98 / 1.13 / 1.05 / 0.73 / 1.23,0.99,2 of 18 (3.57)
KISQFYEMESRNKNSVA,SASTRMV,QQYHRLPLS,0.14 / 0.19 / -0.06 / -0.11 / 0.07 / 0.39,0.10,2 of 18 (3.20)
KVSQSMWYESRNKNSVA,DASQRES,QQYHRLPLQ,-0.13 / -0.21 / -0.29 / -0.51 / -0.26 / -0.49,-0.31,3 of 18 (3.70)
KSSQSWLGEDWNKNSVA,QASQRMS,QQYHRLPLS,0.04 / -0.06 / -0.01 / -0.19 / -0.09 / 0.23,-0.01,2 of 18 (2.16)
KLSCSMEYESRNKNSVA,NASTREE,QQYHRLPLT,1.74 / 2.02 / 1.86 / 3.68 / 2.16 / 1.62,2.18,1 of 18 (2.17)
KLSQDVCYGDRMKNSVA,NASTREQ,QQYHRLPLS,0.10 / 0.28 / -0.05 / -0.11 / 0.21 / 0.32,0.12,2 of 18 (2.59)
KLSQSQLYESRNSKNVA,NASTRVS,QQYHRLPLS,-0.13 / -0.34 / -0.37 / -0.37 / -0.25 / -0.17,-0.27,2 of 18 (2.40)
KVSQSELGEERNKMSVA,SASTREK,QQYHRLPLS,0.40 / 0.70 / 0.25 / -0.09 / 0.28 / 0.40,0.32,0 of 18
KAQNSNEYESRNKNSVA,NASQRED,QQYHRLPLS,0.17 / -0.30 / 0.00 / 0.01 / -0.20 / -0.06,-0.06,0 of 18
KVSMLHDYESRNKNSVA,QASTRES,QDYHRLPLS,0.27 / 0.02 / 0.00 / 0.04 / 0.05 / 0.17,0.09,1 of 18 (1.72)

Data: MIT Lincoln Laboratory AlphaSeq set, Li et al. 2023, doi:10.1038/s41467-023-39022-2, as distributed in FLAb.